In paper PMC5779714, “Metallochaperone UreG serves as a new target for design of urease inhibitor: A novel strategy for development of antimicrobials” (PLoS Biology, 2018) one finds Kd data, which are given here for one compound.

Chains of the proteins cited; added tags and fusions are not shown. Lines headed by an entry give the natural chain unless they say otherwise; changes in a name come on top.
UniProt Q09066: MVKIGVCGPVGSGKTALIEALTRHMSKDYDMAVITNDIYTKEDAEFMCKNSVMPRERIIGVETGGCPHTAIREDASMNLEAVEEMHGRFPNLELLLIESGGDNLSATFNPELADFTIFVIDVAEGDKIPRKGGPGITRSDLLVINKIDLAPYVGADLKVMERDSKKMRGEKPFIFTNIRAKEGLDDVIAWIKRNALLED

For the experiment, the target named is UreG (Helicobacter pylori, UniProt Q09066). Particulars: read-out: dissociation constant (Kd) of BiNTA binding to UreG; Ryan–Weber fit of UV-vis titration.

pKd: −log10 of the molar value.

One may read the pKd as the negative decadic logarithm of the Kd, by convention in mol/L. For `O=C([O-])CN(CC(=O)[O-])CC(=O)[O-].[Bi+3]` [BiNTA, Bi nitrilotriacetic acid], the pKd is 5.96.
